{
  "source": "patent US20240139206A1",
  "about": "“METHODS OF TREATMENT” (Kinoxis Therapeutics Pty Ltd, priority 2021, published 2024)",
  "tested_on": "single housed hyper-aggressive male Swiss mice",
  "assay": "Isolation-induced aggression model, two mouse social interaction test",
  "type": "in vivo",
  "from_the_text": "This model has been chosen as it is considered to have excellent predictive validity toward human aggression and face validity for modelling offensive impulsive aggression in human aggression and it leads specifically to alterations in aggressive behaviour without confounding changes in other behaviours. This model has also been used for the screening/identification of potential serenics for use in treating aggression/agitation in dementias and related disorders.\nEighty male Swiss mice (ARC, Perth, Australia) aged 6-7 weeks upon arrival were used for objectives (1) and (3) in this study, 30 mice of the same age and strain were used for objective (2). Subjects were housed four per cage in a temperature-controlled colony room (22° C.±1° C.) under standard laboratory conditions (12-hour light/dark cycle; light phase 0700-1900 hours) upon arrival. Mice were housed in standard IVC cages. Mice had ad libitum access to food and water in their home cages. All experiments were performed during the light phase. All experimental procedures were approved by University of Sydney Animal Ethics Committee.\nAfter allowing 1 week for acclimatisation, n=64 mice were rendered hyper-aggressive by moving them into single housing, whereas n=16 animals were housed in groups of four. During this time, all mice were weighed at least once per week. […]",
  "note": "“Also recorded” adds a separate entry of the source.",
  "data": [
    {"smiles": "Cc1nc2n(c(=O)c1CCN1CCC(c3noc4cc(F)ccc34)CC1)CCCC2", "note": "[risperidone, reference compound]", "values": [
      {"measurement": "distance travelled vs vehicle treated single housed mice", "setting": "Example 4: 0.1 mg/kg risperidone or 10 mg/kg KNX100 dihydrochloride salt", "value": "travelled significantly less distance; also recorded: significantly reduced distance travelled"},
      {"measurement": "distance travelled / locomotor activity, risperidone compared with KNX100", "setting": "Example 4: 0.1 mg/kg risperidone vs 10 mg/kg KNX100", "value": "also travelled significantly less distance than mice treated with 10 mg/kg KNX100; also recorded: caused significantly more inhibition of locomotor activity than KNX100"}
    ]}
  ]
}
